This is an account of results in patent US20060264418A1, “6-(2,2,2-Trifluoroethylamino-7-chloro-2,3,4,5-tetrahydro-1h-benzo[d] azephine as a 5-ht2c receptor agonist” (priority 2003, published 2006).

Protein sequences, listed by entry. Tags and fused reporters are not part of them. Residues count along the entry.
UniProt P28335, 33-458: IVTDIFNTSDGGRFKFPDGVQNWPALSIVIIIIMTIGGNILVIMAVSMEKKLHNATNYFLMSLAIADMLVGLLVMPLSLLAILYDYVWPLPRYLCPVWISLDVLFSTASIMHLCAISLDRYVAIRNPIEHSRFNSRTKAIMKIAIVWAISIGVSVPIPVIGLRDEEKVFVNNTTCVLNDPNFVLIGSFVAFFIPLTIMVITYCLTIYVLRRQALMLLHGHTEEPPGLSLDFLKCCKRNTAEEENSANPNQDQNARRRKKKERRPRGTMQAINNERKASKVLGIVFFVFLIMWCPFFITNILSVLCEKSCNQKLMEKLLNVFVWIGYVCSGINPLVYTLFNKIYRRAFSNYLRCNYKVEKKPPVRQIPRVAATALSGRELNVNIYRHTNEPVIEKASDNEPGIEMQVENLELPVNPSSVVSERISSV

Structures are written as SMILES.

This experiment concerns the target 5-HT2C receptor (Homo sapiens, UniProt P28335). Kind of experiment: G alpha q-GTPγ[35S] binding agonist activity assay (ISPA), 5-HT2C. It counts as biochemical. Set-up: expressed in transfected cells; host or cells: AV12 cells. To be noted: ratio of AUCs normalized to 5-HT. On the technique in general: Binding of GTPγS marks nucleotide exchange on a G protein.

Consider `Clc1cccc(N2CCNCC2)c1` [mCPP, meta-chlorophenylpiperazine, reference compound], for which the “AUC 2C/2A Selectivity Ratio” value (5-HT2C receptor/5-HT2A receptor) amounted to 2.1. Moreover, the “AUC 2C/2B Selectivity Ratio” value (5-HT2C receptor/5-HT2B receptor) is on record as 2.1.
